Binding of CDR-mutated scFvs to a peptide of the spike HR2 region

The measurements come from Engelhart et al. 2022 (doi:10.1038/s41597-022-01779-4) through the FLAb antibody collection.

Antigen: PDVDLGDISGINAS, a 14-residue peptide of the SARS-CoV-2 spike HR2 region.

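Library AAYL51 holds single substitutions and randomly drawn double and triple substitutions in the CDRs. AlphaSeq pools MATa yeast showing the antibodies with MATalpha yeast showing the peptide. After mating in shaken culture at 30 °C for 16 h, diploids were selected and their barcode pairs sequenced. The ratio of observed to expected reads was calibrated, replicate by replicate, on BCL2-family standards whose Kd was known from biolayer interferometry. Mating was done three times.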

Ab-91 is the parent antibody, in scFv form: VL, then the linker GGGGSGGGGSGGGGS, then VH. The light chain is unchanged in all variants.
VL: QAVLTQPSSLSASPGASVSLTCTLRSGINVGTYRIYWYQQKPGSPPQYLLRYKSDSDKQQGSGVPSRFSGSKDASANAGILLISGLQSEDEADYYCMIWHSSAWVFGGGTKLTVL
VH: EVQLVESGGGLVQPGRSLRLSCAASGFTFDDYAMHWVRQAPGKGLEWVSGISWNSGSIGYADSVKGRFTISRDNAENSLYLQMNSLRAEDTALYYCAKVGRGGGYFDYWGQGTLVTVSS

Each variant is given by its three heavy chain CDRs, as the data file delimits them; those of the parent are GFTFDDYAMH, GISWNSGSIGYADSVK, VGRGGGYFDY.
Values are log10 of the apparent Kd in nM; lower means stronger binding.
Averages over replicates are reported, and they cover detected replicates only.
A pair that was not seen in any replicate is written "nd"; this usually means weak binding, but a binder can also be missed.
Background: pairings of library AAYL51 with three empty control strains gave a value in 21% of cases (median 4.54, 5th percentile 3.26). Values in that range, when seen in few replicates, are hard to tell from nonspecific mating.

CDR-H1,CDR-H2,CDR-H3,"log10 Kd (nM), mean",replicates with signal
KFTFDDYAMH,GISWNWGSIGYADMVK,VGRGGGYFDY,5.05,2 of 3
GFTFIGHAMH,GISWNSGSIGYADSVK,VGRGGGYFDY,nd,0 of 3
HFTFDDYAMH,GISWNSSSIGYADSRK,VGRGGGYFDY,nd,0 of 3
GFRFDDYAMH,GISWWSGKIGYADSVK,VGRGGGYFDY,4.88,1 of 3
GFTFDDYAMH,GISWNSGSIGPWDSVK,RGRGGGYFDY,nd,0 of 3
GFTFDDYANH,GISWCSGSIGYADSVK,VGRGGGYFDS,nd,0 of 3
GFTFDDYAMH,GISWNSGGIGYADSVL,CGRGGGYFDY,4.08,3 of 3
GFTFDDYAMH,GISRNSGSIGYARSVK,VGRGGGEFDY,4.29,3 of 3
GFTFDAYAMH,GISWNSGSIGYADSVK,VGRGGPYFDY,4.73,1 of 3
IFTFDDYAMH,GISWLSGSIGYADSVK,VGRGGGYYDY,nd,0 of 3
VFTFDDYAMH,GISWNSYSIGYADSVK,VGRGGGYKDY,nd,0 of 3
GVTFDDYRMH,GISWNSGSIGYADEVK,VGRGGGYFDY,4.66,2 of 3
IFTFDDYAMH,GISWNYGSIGYADSVK,VGRGGGTFDY,nd,0 of 3
GFTFDDYAMH,GINWNSGSIGYAKVVK,VGRGGGYFDY,nd,0 of 3
GFLFDDKAMH,GISWNSGSIGYADSVF,VGRGGGYFDY,4.68,1 of 3
WFSFDDYAMH,GPSWNSGSIGYADSVK,VGRGGGYFDY,nd,0 of 3
GFTFWDYAMH,GILWNSGSIGYADSVK,RGRGGGYFDY,4.25,1 of 3
GFTFDDYAMH,GNSWNYGSIGYADSVK,VGRGGGYFVY,nd,0 of 3
GFTFDDYAMH,GISWNPGSIGYAKSVK,VGRGGGYFWY,nd,0 of 3
GFTFDDYAMH,GISWNSGSRGYAYSDK,VGRGGGYFDY,3.89,1 of 3
GFTFDDYAMH,GIAWNSGSIGYADSVK,HGRGGGYFDY,4.58,1 of 3
GFTFDDYAMH,GISYNSFSIGYADSVK,WGRGGGYFDY,2.26,3 of 3
GFTFDDPAMH,GKSWTSGSIGYADSVK,VGRGGGYFDY,3.50,1 of 3
GFTFDLYAMH,GISENSGSIGYADSVK,VGRGGGYFDY,3.27,2 of 3
CFTFDDYAMH,GISWNTGSIGYADSVK,VGRTGGYFDY,4.90,2 of 3
GFTFDDYAMH,GISWNSGSIGYLDSVK,VGRGHGYQDY,2.36,3 of 3
GFTFDDYAMH,GISWNPGSIGYADSVK,VGRGGGYFGY,4.90,1 of 3
GFTFDQNAMH,GISWNLGSIGYADSVK,VGRGGGYFDY,4.10,2 of 3
GFTFDDYAMH,GISHHSGSIGYADSVK,VGRGGSYFDY,nd,0 of 3
GFTFDDYAMV,GISWNSGWIGYADSVK,EGRGGGYFDY,4.36,2 of 3
GFTFDDYAMH,GISWNHGSIGYAFSVK,VGRPGGYFDY,nd,0 of 3
GFTFDDFAMH,GISTNSGSIGYADEVK,VGRGGGYFDY,0.98,3 of 3
GFTNDMYAMH,GISWNSGSIGYADRVK,VGRGGGYFDY,4.19,1 of 3
GFTFDDYAMH,GISWNSGSIGYGKSVK,VGRGGGYFDG,2.28,3 of 3
GFTFDDYAMH,GISWNSGSIGYLPSVK,VGRGGGYFDY,5.12,3 of 3
GFTFDDYAMH,GISWNSGSIGGADSVK,VGRGCGYFDS,nd,0 of 3
AFTFDAYAFH,GISWNSGSIGYADSVK,VGRGGGYFDY,nd,0 of 3
GFTDDDYSMH,GISWNSGSIGYADSVK,VGRGGGYFSY,3.93,3 of 3
GFTFDDYAMH,GKWWNSGCIGYADSVK,VGRGGGYFDY,nd,0 of 3
GFTFKDYAMH,GISWNSGSIGYADSVK,VGRGCGAFDY,2.67,3 of 3
GFTFDDFAMH,GISWNAGSIGYADSVK,VGRGGGYPDY,nd,0 of 3
MFTFDDYACH,GISWNSGSIGYADSVK,VGRGGGYFEY,5.57,3 of 3
GFYFDDYAMH,GILWHSGSIGYADSVK,VGRGGGYFDY,4.42,2 of 3
GFTFNDYAMH,GISWNSASIGYADSTK,VGRGGGYFDY,1.33,3 of 3
GFTFDDYYMH,GISWNSGSIGYADSNK,VGRGMGYFDY,5.41,1 of 3
GFTFDDYAIH,HISWNSGSIGYADSVK,QGRGGGYFDY,4.43,1 of 3
KFKFDDYAMH,GISWNSGSIGYADSVK,VGNGGGYFDY,1.71,3 of 3
GFTFDAYAMH,GISWNSGSIGYADSVK,VGRGGGYDDY,4.79,1 of 3
GFHFDDYAMH,GISWNSGSIGWAMSVK,VGRGGGYFDY,3.50,1 of 3
GFTFDDYAMY,GIQWNSGSIGYADSVK,MGRGGGYFDY,nd,0 of 3
GFTFYDTAMH,GISWNSGSIGYADSVK,VGQGGGYFDY,2.09,3 of 3
GFTFDDYAMH,GISWNSGSSGYADSVK,VGRGGGHFSY,nd,0 of 3
GFTFDDYAEH,GISWNSGPIGYADSVK,VGRGRGYFDY,nd,0 of 3
GFTFDDYAMH,GISWNSQSIGYADSVK,VGRGGGYNGY,nd,0 of 3
GFTFDDYAMH,GISWNSGSIGPADSVK,VGWGGGYFDP,5.09,2 of 3
GYPFDDYAMH,GISCNSGSIGYADSVK,VGRGGGYFDY,3.20,2 of 3
GATPDDDAMH,GISWNSGSIGYADSVK,VGRGGGYFDY,5.87,3 of 3
GFTNDDYAMH,GDSWNSGSIRYADSVK,VGRGGGYFDY,5.00,2 of 3
GFTFDDYAMH,GIEWNSGSIGYAKSVK,IGRGGGYFDY,nd,0 of 3
GWTEDDYAMH,GISWNSGSIGYADSVK,VGRGGWYFDY,nd,0 of 3
GFTFDDPAMH,GISWNWGSIAYADSVK,VGRGGGYFDY,nd,0 of 3
GFTFDDYAMH,GIQWNSGSDGYADSVK,PGRGGGYFDY,nd,0 of 3
GFTFDDYAMH,GISWNSHMIGYADSVK,VGRGGGYFDY,2.04,3 of 3
GFTFDDYAMA,GISNNSGSIGYADAVK,VGRGGGYFDY,3.86,1 of 3

Extract of 9 entries:

{"CDR-H1": "GFTNDMYAMH", "CDR-H2": "GISWNSGSIGYADRVK", "CDR-H3": "VGRGGGYFDY", "log10 Kd (nM), mean": "4.19", "replicates with signal": "1 of 3"}
{"CDR-H1": "GATPDDDAMH", "CDR-H2": "GISWNSGSIGYADSVK", "CDR-H3": "VGRGGGYFDY", "log10 Kd (nM), mean": "5.87", "replicates with signal": "3 of 3"}
{"CDR-H1": "GFTFDAYAMH", "CDR-H2": "GISWNSGSIGYADSVK", "CDR-H3": "VGRGGGYDDY", "log10 Kd (nM), mean": "4.79", "replicates with signal": "1 of 3"}
{"CDR-H1": "GFTFYDTAMH", "CDR-H2": "GISWNSGSIGYADSVK", "CDR-H3": "VGQGGGYFDY", "log10 Kd (nM), mean": "2.09", "replicates with signal": "3 of 3"}
{"CDR-H1": "GVTFDDYRMH", "CDR-H2": "GISWNSGSIGYADEVK", "CDR-H3": "VGRGGGYFDY", "log10 Kd (nM), mean": "4.66", "replicates with signal": "2 of 3"}
{"CDR-H1": "GFTFDDYAMH", "CDR-H2": "GISHHSGSIGYADSVK", "CDR-H3": "VGRGGSYFDY", "log10 Kd (nM), mean": "nd", "replicates with signal": "0 of 3"}
{"CDR-H1": "GFTFDDYAMH", "CDR-H2": "GIAWNSGSIGYADSVK", "CDR-H3": "HGRGGGYFDY", "log10 Kd (nM), mean": "4.58", "replicates with signal": "1 of 3"}
{"CDR-H1": "GFTFDDYAMH", "CDR-H2": "GIQWNSGSDGYADSVK", "CDR-H3": "PGRGGGYFDY", "log10 Kd (nM), mean": "nd", "replicates with signal": "0 of 3"}
{"CDR-H1": "IFTFDDYAMH", "CDR-H2": "GISWNYGSIGYADSVK", "CDR-H3": "VGRGGGTFDY", "log10 Kd (nM), mean": "nd", "replicates with signal": "0 of 3"}

For reference, the parent read 1.86 as the reference entry and 0.88 as a member of this library.